Source: article PMC10095747 (2023)

The chains behind the UniProt entries cited, without tags or fusion partners.
UniProt P33261, whole entry: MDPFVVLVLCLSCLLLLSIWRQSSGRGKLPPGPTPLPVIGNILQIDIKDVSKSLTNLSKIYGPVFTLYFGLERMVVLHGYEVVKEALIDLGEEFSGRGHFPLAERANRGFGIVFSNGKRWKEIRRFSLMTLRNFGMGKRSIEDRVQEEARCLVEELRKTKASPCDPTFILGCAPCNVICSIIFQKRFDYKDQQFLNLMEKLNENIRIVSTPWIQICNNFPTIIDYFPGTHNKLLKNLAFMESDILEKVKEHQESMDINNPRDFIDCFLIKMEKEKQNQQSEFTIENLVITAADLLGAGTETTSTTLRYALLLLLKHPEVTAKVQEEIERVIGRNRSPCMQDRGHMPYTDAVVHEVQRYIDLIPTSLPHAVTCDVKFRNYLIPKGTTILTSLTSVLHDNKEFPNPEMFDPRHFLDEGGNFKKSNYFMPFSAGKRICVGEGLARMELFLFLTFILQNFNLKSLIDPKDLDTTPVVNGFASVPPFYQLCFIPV

Target: rCYP2C19 (Homo sapiens, UniProt P33261)
Test: luminogenic P450-Glo CYP450 inhibition assay, rCYP2C19
Conditions: Median IC50 (Range) rCYP2C19, median (range), three independent experiments

IC50: 2070 nM
Compound: Cc1c(C)c2c(c(C)c1O)CCC(C)(COc1ccc(CC3SC(=O)NC3=O)cc1)O2 (stereo not shown) [Troglitazone, reference compound]
